Values of other authors as cited in article PMC7082075.

Amino acid sequences for entries named in this document (tags omitted). A change or cut given only in a name is not applied to a line headed by its entry.
UniProt P49281: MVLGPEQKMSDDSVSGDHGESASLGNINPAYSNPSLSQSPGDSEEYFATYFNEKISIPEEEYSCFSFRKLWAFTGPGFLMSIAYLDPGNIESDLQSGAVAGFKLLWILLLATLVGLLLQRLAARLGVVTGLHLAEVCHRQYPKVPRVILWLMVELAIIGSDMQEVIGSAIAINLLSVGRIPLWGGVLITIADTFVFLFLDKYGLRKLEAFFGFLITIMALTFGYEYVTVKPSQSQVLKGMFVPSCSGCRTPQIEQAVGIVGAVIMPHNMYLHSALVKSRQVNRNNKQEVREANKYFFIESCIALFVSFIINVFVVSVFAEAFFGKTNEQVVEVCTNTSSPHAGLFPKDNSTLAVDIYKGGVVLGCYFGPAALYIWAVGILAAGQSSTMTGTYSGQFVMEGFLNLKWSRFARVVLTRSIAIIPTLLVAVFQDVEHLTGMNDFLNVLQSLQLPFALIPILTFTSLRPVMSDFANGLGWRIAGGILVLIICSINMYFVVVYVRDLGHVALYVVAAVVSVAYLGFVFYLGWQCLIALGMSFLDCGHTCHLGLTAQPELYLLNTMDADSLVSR

Target: DMT1-II (Homo sapiens) (UniProt P49281)
Conditions: cited from earlier work

SNX3-retromer (SNX3/VPS35/VPS26) (from UniProt O60493)
Kd: 127 µM
